Target: T1, neuroblastoma x glioma hybrid cells (Mus musculus, UniProt P32300)
T1 construct: The radioreceptor assay employed neuroblastoma x glioma hybrid cells; endogenous in cells; host or cells: neuroblastoma x glioma hybrid cells
Assay: Radioreceptor assay (opioid activity) with ^3 H-Leuenkephalin as the competing ligand
Type: binding
Conditions: fractions from RP-18; 1.3 g wet weight of chromaffin granules isolated from 30 g of adrenal medulla

By UniProt entry, the sequences of proteins in these tests, tags left out.
UniProt P32300, whole entry: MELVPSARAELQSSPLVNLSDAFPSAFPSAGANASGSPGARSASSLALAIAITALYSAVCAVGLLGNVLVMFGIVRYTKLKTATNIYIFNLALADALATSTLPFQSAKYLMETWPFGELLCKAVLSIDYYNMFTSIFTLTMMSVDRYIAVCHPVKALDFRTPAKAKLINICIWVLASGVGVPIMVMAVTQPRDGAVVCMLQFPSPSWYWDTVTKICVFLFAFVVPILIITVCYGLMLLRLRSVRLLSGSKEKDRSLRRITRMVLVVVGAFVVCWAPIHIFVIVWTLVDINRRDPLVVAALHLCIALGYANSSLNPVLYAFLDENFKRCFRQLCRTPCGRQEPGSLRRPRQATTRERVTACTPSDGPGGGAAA

**Q.** How did the Radioreceptor turn out when methionine enkephalin [Met Enk] was run?
**A.** The Radioreceptor was 1.0 nmoles/fraction.
